Literature values as cited in US20170209415A1, “USE OF (+)-1-(3,4-DICHLOROPHENYL)-3-AZABICYCLO[3.1.0]HEXANE TO TREAT ADDICTIVE DISORDERS INCLUDING NICOTINE ADDICTION” (priority 2012, published 2017).

Amino acid sequences for entries named in this document (tags omitted).
UniProt P23975, whole entry: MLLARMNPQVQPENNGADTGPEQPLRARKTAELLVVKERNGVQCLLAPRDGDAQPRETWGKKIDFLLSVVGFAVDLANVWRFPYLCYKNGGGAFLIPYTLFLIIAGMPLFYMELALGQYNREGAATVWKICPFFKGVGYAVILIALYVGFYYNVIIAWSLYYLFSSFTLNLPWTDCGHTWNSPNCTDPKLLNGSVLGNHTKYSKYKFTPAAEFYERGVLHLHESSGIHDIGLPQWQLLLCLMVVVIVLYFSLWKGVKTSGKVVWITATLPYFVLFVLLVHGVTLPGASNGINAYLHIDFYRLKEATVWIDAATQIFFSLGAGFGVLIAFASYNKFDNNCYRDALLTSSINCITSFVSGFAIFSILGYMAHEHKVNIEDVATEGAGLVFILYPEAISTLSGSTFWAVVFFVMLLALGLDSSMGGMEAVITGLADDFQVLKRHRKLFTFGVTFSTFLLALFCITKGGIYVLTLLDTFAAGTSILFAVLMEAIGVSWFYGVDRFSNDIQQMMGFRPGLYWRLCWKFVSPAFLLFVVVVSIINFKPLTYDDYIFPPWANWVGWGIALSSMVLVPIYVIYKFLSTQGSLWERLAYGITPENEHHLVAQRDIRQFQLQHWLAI
UniProt Q01959, whole entry: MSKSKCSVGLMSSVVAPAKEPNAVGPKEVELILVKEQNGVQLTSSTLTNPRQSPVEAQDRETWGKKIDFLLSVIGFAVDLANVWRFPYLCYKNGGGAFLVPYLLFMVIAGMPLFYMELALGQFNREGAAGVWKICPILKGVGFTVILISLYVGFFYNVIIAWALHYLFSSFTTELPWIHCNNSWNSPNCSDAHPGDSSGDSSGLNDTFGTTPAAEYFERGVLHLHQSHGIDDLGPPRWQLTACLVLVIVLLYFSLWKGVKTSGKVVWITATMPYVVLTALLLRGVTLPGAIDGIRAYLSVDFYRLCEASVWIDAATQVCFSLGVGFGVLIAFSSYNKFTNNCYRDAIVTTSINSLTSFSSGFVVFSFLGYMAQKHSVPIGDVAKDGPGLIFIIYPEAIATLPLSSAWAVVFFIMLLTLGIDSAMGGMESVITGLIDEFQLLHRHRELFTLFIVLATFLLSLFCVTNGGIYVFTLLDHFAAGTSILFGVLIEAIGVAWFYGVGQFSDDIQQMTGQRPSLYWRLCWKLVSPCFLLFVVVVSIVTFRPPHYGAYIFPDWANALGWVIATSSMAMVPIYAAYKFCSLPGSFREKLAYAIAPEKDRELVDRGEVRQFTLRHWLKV

Experiments:
[1] = target: NE reuptake (Homo sapiens, UniProt P23975); conditions: read-out: IC50, NE reuptake inhibition; Schrieber, 2009; cited from earlier work
[2] = target: DA reuptake (Homo sapiens, UniProt Q01959); conditions: read-out: IC50, DA reuptake inhibition; Schrieber, 2009; cited from earlier work

Q: For NC1CCC(c2ccc(Cl)c(Cl)c2)c2ccccc21 (centres unmarked), which IC50 [1] is on record?
A: Its IC50 is 4 nM.

Q: And the IC50 [2]?
A: The IC50 was 3 nM.
